Laboratory results: patent US10494384B2, “Urea peptoid boric acid compound, pharmaceutical composition thereof, preparation method therefor, and uses thereof” (Peking University, priority 2015, dated 2019)

Amino acid sequences for entries named in this document (tags omitted). A change or cut given only in a name is not applied to a line headed by its entry.
UniProt P18421: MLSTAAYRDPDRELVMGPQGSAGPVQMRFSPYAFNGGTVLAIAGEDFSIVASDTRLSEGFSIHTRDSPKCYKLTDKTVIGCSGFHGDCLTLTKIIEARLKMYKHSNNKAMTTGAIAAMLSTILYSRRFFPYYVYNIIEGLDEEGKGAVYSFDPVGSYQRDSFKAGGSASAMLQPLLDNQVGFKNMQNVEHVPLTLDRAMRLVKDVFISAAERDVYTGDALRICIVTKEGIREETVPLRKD
UniProt P28075: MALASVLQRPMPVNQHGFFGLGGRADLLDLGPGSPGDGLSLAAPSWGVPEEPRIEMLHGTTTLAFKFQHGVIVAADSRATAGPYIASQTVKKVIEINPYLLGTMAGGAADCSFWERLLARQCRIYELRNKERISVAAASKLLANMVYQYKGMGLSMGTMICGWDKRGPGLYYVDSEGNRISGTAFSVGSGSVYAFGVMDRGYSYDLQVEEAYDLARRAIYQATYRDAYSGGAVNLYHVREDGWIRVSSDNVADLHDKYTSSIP

Legend:
HepG2 liver cancer cells = experiment: anti-tumor activity in vitro (IC50), MTT; format: cell-based; conditions: Homo sapiens, 72 h
Procedure: (§1) Cancer cells were cultured in vitro. When cell growth reached logarithmic phase, the cells were collected and centrifuged at 1000 rpm for 5 min, before the supernate was removed and the cells were suspended in a moderate amount of medium, and then the concentration of cell was adjusted to 3.5×10^4/mL. The cell suspension was added into a 96-well plate with 100 μL per well and cultured in a cell incubator (37° C., 5% CO2) for 24 h. Then test drugs of different end concentrations were added, and the negative control group was added DMSO (end concentration was 0.5%), while each group afforded three repetitive holes. After cultivation for another 72 h in the cell incubator, a solution containing 5 mg/ml MTT (20 μL) was added into each well and the 96-well plate was placed at 37° C. for 3 h. To each well was added 150 μL DMSO, after oscillation in a shaking table for 5 min, the optical density (OD) values at 492 nm/620 nm were measured. IC50 values were calculated by Prism Graphpad statistical software.

[1] = target: T1, 20S proteasome extracted from rat liver (CT-L) (Rattus norvegicus, UniProt P18421+P28075); experiment: inhibition of 20S proteasome, CT-L activity (fluorescent peptide); format: biochemical
T1 construct: 20S proteasome extracted from rat liver; from tissue; host or cells: rat liver
Procedure: 1 μg of 20S proteasome extracted from rat liver was incubated with a 100 μL solution containing various concentrations of the present compounds, 50 μM fluorescent peptides and 20 mM Tris-HCl at 37° C. for 1 h, respectively. […] 0.1% DMSO was used as a solvent control. Compared with the fluorescence of solvent control, an inhibition rate or IC50 value was calculated.

[2] = system: MGC803 stomach cancer cells; experiment: anti-tumor activity in vitro (IC50), MTT; format: cell-based; conditions: Homo sapiens, MGC-803, 72 h
Procedure: as §1

95D = experiment: anti-tumor activity in vitro (IC50), MTT; format: cell-based; conditions: Homo sapiens, 72 h
Procedure: as §1

A549 = experiment: anti-tumor activity in vitro (IC50), MTT; format: cell-based; conditions: Homo sapiens, 72 h
Procedure: as §1

BEL7404 = experiment: anti-tumor activity in vitro (IC50), MTT; format: cell-based; conditions: Homo sapiens, BEL-7404, 72 h
Procedure: as §1

HCT116 = experiment: anti-tumor activity in vitro (IC50), MTT; format: cell-based; conditions: Homo sapiens, HCT-116, 72 h
Procedure: as §1

MDA-MB-231 = experiment: anti-tumor activity in vitro (IC50), MTT; format: cell-based; conditions: Homo sapiens, 72 h
Procedure: as §1

MKN45 = experiment: anti-tumor activity in vitro (IC50), MTT; format: cell-based; conditions: Homo sapiens, MKN-45, 72 h
Procedure: as §1

SKOV3 = experiment: anti-tumor activity in vitro (IC50), MTT; format: cell-based; conditions: Homo sapiens, SK-OV-3, 72 h
Procedure: as §1

SW1990 = experiment: anti-tumor activity in vitro (IC50), MTT; format: cell-based; conditions: Homo sapiens, 72 h
Procedure: as §1

## CC(C)C[C@H](NC(=O)[C@H](Cc1ccccc1)NC(=O)NCCc1ccccc1)B(O)O [Example 25, N-L-phenylalanyl-L-leucine borate-N′-phenylethylamine-urea]
HepG2 liver cancer cells
  IC50: 0.0709 µM

## CC(C)C[C@H](NC(=O)[C@H](Cc1ccccc1)NC(=O)N[C@H](C)c1ccccc1)B(O)O [Example 26, N-L-phenylalanyl-L-leucine borate-N′—(R)-2-methyl-benzylamine-urea]
[1]
  IC50: 10 nM
HepG2 liver cancer cells
  IC50: 0.037 µM
[2]
  IC50: 0.00408 µM

## CC(C)C[C@H](NC(=O)[C@H](Cc1ccccc1)NC(=O)N[C@@H](C)c1ccccc1)B(O)O [Example 27, N-L-phenylalanyl-L-leucine borate-N′—(S)-2-methyl-benzylamine-urea]
HepG2 liver cancer cells
  IC50: 1.07 µM
[2]
  IC50: 0.198 µM

## CC(C)C[C@H](NC(=O)[C@H](Cc1ccccc1)NC(=O)N(C)Cc1ccccc1)B(O)O [Example 29, N-L-phenylalanyl-L-leucine borate-N′—(N-methyl-benzylamine)-urea]
HepG2 liver cancer cells
  IC50: 0.0305 µM
[2]
  IC50: 0.0052 µM

## CC(C)C[C@H](NC(=O)[C@H](Cc1ccccc1)NC(=O)NCc1ccco1)B(O)O [Example 33, N-L-phenylalanyl-L-leucine borate-N′-furan-2-ylmethylamine-urea]
HepG2 liver cancer cells
  IC50: 0.0456 µM
[2]
  IC50: 0.00532 µM

## CC(C)C[C@H](NC(=O)[C@H](Cc1ccccc1)NC(=O)NCc1cccc([N+](=O)[O-])c1)B(O)O [Example 36, N-L-phenylalanyl-L-leucine borate-N′-3-nitro-benzylamine-urea]
HepG2 liver cancer cells
  IC50: 0.0438 µM
[2]
  IC50: 0.00632 µM

## CC(C)C[C@H](NC(=O)[C@H](Cc1ccccc1)NC(=O)c1cnccn1)B(O)O [positive control, bortezomib, reference compound]
95D
  IC50: 38.2 nM
A549
  IC50: 2140 nM
BEL7404
  IC50: 25 nM
HCT116
  IC50: 1.4 nM
MDA-MB-231
  IC50: 16.6 nM
MKN45
  IC50: 7.15 nM
SKOV3
  IC50: 1.62 nM
SW1990
  IC50: 79.1 nM
